Measurements taken from BindingDB's records for doi:10.1002/1098-2396(20010101)39:1 (Nih, 2001).

Amino acid sequences for entries named in this document (tags omitted).
UniProt P23977, whole entry: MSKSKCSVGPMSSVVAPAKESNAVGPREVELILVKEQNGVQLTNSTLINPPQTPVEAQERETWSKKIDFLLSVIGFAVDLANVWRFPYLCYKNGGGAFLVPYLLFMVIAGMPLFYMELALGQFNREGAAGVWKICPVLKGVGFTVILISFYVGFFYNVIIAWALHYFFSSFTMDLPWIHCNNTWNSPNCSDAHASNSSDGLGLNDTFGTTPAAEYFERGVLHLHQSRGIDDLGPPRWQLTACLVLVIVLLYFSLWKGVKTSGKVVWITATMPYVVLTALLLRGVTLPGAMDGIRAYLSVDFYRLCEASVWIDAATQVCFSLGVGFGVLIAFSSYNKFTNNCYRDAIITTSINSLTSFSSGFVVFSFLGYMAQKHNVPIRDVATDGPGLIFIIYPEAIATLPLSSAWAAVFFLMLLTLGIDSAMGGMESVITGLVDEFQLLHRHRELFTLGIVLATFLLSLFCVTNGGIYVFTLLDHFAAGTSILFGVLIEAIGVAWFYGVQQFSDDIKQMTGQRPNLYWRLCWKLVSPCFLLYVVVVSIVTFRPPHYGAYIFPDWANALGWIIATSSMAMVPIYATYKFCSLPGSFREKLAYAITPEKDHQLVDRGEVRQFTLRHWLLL

Target: Sodium-dependent dopamine transporter (Rattus norvegicus, UniProt P23977)

## CNC1CC(c2ccc(Cl)c(Cl)c2)c2ccccc21 (stereo unspecified)
  Ki: 1.9 nM
